Data from US20250381168A1, “VLA4 INHIBITORS AND USES THEREOF” (Washington University, priority 2022, published 2025).

Amino acid sequences for entries named in this document (tags omitted). Residues count along the entry.
UniProt P13612, 34-970: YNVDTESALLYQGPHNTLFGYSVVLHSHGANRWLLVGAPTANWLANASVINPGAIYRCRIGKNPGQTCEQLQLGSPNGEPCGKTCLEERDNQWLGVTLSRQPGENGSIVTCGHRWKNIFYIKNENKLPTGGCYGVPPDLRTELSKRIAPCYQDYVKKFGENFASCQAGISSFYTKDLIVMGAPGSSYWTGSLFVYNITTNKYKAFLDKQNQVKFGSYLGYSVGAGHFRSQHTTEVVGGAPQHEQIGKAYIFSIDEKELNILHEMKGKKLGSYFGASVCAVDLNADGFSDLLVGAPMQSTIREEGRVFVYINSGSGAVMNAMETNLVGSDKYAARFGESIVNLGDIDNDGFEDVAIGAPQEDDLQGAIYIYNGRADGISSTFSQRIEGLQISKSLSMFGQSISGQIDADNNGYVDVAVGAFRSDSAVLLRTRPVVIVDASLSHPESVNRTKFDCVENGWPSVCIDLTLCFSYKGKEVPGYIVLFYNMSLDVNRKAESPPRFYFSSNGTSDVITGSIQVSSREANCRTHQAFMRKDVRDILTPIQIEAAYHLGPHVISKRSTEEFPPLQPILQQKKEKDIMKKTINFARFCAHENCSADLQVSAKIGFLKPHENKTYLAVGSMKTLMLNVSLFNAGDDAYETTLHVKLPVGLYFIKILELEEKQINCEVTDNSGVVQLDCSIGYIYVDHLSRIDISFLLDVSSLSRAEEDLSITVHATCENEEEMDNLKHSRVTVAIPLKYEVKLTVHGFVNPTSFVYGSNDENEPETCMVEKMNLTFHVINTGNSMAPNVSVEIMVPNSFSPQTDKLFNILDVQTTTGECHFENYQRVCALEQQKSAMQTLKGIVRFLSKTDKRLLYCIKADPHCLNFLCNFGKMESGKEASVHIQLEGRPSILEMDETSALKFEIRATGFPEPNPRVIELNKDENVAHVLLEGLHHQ
UniProt P26010, 20-723: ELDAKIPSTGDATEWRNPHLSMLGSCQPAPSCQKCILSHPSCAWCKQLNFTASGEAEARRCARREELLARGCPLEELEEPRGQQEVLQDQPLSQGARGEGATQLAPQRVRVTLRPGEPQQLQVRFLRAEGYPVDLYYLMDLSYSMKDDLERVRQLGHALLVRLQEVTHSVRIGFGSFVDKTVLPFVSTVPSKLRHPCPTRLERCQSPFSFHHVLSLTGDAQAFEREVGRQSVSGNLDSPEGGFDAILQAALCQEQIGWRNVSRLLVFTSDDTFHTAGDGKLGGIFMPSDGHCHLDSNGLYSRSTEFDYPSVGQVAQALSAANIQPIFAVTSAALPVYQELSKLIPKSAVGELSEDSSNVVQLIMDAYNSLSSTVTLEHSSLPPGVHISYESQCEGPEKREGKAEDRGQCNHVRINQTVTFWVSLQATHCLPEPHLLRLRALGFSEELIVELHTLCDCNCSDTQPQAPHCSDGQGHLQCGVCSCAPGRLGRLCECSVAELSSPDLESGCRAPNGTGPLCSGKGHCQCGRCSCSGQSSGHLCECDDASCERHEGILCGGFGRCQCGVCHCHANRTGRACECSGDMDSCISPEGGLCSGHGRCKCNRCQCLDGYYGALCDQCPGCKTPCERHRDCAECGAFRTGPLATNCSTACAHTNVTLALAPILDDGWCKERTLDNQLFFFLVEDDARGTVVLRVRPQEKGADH

Target: integrin a4b7 (Homo sapiens (Human), UniProt P13612+P26010)
Assay: a4b7 solid phase receptor assay (SPRA)
Conditions: recombinant human a4b7 binding to plate-coated human VCAM1 (TABLE 4)
Experimental: The potency of compounds in blocking ligand binding to integrin a4b7 was determined by modification of previously described methods (Henderson et al, Nature Medicine, 2013). Briefly, purified human VCAM1 (R & D Systems) diluted to 5 μg/ml in TBS+ buffer (25 mM Tris pH 7.4, 137 mM NaCl, 2.7 mM KCl, 1 mM CaCl2), 1 mM MgCl2, 1 mM MnCl2) was added to wells of a 96-well transparent microtiter plate and incubated overnight at 4° C. Wells were washed 3 times with TBS+ and blocking buffer (TBS+ with 1% bovine serum albumin), the plate was incubated for 1 hr at 37° C., and then washed 3× with TBS+ buffer. Recombinant human a4b7 (R & D Systems) was diluted to 1 μg/ml in TBS+/0.1% bovine serum albumin. Test compounds were diluted into the integrin solution and added to the washed ligand-coated plate according to a standard template with each sample repeated in triplicate. After incubation for 2 hr at room temperature, the plate was washed 3× with 150 μl of TBS+ buffer. […] After incubation for 20 min at room temperature, plates were stopped with TMB stop solution (Sigma S5689) by colorimetric detection at 450 nm wavelength using a Tecan Safire II plate reader. Concentration-response curves were constructed by non-linear regression (best fit) analysis, and IC50 values were calculated for each compound. […]

IC50: 3.9 nM
SMILES: CCOCc1cc(OC)c(-c2ccc(C[C@H](NC(=O)[C@@H]3CCCN3S(=O)(=O)c3cc(Cl)cc(Cl)c3)C(=O)O)cc2)c(OC)c1 [Example C6]
